Results from PMC10799085, “A miniaturized mode-of-action profiling platform enables high throughput characterization of the molecular and cellular dynamics of EZH2 inhibition” (Scientific Reports, 2024).
Where “and” joins values, the source holds several entries; their conditions need not be identical. Equal entries are not always repeated.

Tests used:
PRC2/EZH2+/+ = molecular target: T1, PRC2/EZH2+/+ (Homo sapiens, UniProt Q15910); test: Equilibrium binding thermodynamics (van't Hoff analysis of ePCA/kPCA at 5-37 °C)
T1 construct: purchased Active Motif

KARPAS-422 cells = test: Cellular proliferation assay (AlamarBlue, 144 h); assay type: cell-based; conditions: Homo sapiens, KARPAS-422, 144 h, read-out: KARPAS (6-day) Anti-proliferation IC50 (M)
PRC2/EZH2Y641N = molecular target: T2, PRC2/EZH2Y641N (Homo sapiens, UniProt Q15910, Y641N); test: Kinetic probe competition assay (kPCA), TR-FRET; assay type: binding
T2 construct: Synthetic cDNA encoding N-terminal 6His-tagged full length EZH2^Y641N; 6His (N); made in house; host or cells: Sf9 insect cells (baculovirus co-infection)

Cc1cc(C)c(CNC(=O)c2cc(Cl)c3c(c2C)O[C@@](C)([C@H]2CC[C@H](N(C)C)CC2)O3)c(=O)[nH]1 [Compound 31, DS-3201]
binding driving force, linear van't Hoff model (PRC2/EZH2+/+): entropy-driven | binding driving force, polynomial van't Hoff analysis (PRC2/EZH2+/+): entropy-driven | ΔCp (heat capacity change), equilibrium conditions (PRC2/EZH2+/+): smallest | IC50 (KARPAS-422 cells): 7.8e-08 M | Calculated RT (PRC2/EZH2Y641N): 0.69 h and 0.83 h
